How the values were obtained:
NaV1.3 = NaV1.3 (Homo sapiens, UniProt Q9NY46); assay: VIPR optical membrane potential assay with electrical stimulation, NaV1.3; settings: read-out: NaV 1.3 activity; Table 9, NaV 1.3 receptors
CaV2.2 = CaV2.2 (Homo sapiens, UniProt Q00975); assay: VIPR optical membrane potential assay with electrical stimulation, CaV2.2; settings: read-out: CaV 2.2 activity; Table 9, CaV 2.2 receptors
NaV1.8 = NaV1.8 (Homo sapiens, UniProt Q9Y5Y9); assay: VIPR optical membrane potential assay, NaV1.8 (other subtypes in an analogous mode); settings: read-out: NaV 1.8 activity; Table 9, NaV 1.8 receptors

Chains of the proteins cited; added tags and fusions are not shown.
UniProt Q9NY46, whole entry: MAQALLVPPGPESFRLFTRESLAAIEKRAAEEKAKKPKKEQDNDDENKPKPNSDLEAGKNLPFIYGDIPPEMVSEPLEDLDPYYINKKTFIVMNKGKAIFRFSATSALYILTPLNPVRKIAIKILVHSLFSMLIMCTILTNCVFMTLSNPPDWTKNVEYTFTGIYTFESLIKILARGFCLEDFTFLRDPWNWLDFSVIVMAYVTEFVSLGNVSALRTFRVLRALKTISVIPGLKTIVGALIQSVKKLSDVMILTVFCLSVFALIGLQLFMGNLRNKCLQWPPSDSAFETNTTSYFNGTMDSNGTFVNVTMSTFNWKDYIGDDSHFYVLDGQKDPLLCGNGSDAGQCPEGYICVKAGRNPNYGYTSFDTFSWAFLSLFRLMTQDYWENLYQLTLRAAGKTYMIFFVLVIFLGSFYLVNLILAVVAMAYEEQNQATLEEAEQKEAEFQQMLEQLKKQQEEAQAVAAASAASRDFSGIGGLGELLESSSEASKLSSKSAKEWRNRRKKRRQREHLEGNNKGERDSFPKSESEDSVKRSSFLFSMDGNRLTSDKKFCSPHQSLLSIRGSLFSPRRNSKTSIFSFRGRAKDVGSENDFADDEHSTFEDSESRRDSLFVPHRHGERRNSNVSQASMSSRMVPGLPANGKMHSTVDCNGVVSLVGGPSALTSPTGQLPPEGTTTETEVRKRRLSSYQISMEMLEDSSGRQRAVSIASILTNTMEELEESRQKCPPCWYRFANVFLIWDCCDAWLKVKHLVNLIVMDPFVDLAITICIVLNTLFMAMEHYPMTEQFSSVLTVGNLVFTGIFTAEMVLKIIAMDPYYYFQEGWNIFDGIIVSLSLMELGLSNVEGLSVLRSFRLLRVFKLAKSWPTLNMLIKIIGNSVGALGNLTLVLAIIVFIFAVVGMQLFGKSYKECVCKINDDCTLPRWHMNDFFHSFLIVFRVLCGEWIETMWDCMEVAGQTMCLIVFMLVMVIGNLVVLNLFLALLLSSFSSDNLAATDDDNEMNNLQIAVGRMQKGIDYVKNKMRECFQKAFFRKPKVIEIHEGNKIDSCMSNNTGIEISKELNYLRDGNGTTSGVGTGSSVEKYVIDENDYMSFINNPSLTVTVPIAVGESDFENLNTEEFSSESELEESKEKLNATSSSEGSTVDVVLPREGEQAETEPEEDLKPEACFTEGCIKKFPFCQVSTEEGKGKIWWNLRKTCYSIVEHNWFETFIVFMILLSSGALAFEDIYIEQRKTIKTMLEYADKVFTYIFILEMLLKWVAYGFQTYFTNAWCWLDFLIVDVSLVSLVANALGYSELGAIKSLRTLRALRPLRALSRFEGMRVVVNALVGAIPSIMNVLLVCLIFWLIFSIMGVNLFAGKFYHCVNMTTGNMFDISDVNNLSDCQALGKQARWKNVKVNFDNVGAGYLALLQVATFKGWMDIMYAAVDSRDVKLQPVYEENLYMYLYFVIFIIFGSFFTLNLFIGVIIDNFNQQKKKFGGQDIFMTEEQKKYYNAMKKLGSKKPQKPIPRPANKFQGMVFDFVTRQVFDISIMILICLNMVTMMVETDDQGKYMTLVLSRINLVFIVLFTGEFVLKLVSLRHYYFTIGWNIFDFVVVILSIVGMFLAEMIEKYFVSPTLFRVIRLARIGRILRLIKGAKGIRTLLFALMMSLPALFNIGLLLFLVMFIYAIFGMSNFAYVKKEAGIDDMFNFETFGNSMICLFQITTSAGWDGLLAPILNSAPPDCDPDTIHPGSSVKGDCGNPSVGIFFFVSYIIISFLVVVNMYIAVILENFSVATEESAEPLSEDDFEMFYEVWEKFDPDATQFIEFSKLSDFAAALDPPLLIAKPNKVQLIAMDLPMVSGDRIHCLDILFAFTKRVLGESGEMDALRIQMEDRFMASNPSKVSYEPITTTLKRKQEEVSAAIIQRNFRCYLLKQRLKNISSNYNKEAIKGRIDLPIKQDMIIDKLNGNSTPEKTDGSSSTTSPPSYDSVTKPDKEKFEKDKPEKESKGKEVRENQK
UniProt Q00975, whole entry: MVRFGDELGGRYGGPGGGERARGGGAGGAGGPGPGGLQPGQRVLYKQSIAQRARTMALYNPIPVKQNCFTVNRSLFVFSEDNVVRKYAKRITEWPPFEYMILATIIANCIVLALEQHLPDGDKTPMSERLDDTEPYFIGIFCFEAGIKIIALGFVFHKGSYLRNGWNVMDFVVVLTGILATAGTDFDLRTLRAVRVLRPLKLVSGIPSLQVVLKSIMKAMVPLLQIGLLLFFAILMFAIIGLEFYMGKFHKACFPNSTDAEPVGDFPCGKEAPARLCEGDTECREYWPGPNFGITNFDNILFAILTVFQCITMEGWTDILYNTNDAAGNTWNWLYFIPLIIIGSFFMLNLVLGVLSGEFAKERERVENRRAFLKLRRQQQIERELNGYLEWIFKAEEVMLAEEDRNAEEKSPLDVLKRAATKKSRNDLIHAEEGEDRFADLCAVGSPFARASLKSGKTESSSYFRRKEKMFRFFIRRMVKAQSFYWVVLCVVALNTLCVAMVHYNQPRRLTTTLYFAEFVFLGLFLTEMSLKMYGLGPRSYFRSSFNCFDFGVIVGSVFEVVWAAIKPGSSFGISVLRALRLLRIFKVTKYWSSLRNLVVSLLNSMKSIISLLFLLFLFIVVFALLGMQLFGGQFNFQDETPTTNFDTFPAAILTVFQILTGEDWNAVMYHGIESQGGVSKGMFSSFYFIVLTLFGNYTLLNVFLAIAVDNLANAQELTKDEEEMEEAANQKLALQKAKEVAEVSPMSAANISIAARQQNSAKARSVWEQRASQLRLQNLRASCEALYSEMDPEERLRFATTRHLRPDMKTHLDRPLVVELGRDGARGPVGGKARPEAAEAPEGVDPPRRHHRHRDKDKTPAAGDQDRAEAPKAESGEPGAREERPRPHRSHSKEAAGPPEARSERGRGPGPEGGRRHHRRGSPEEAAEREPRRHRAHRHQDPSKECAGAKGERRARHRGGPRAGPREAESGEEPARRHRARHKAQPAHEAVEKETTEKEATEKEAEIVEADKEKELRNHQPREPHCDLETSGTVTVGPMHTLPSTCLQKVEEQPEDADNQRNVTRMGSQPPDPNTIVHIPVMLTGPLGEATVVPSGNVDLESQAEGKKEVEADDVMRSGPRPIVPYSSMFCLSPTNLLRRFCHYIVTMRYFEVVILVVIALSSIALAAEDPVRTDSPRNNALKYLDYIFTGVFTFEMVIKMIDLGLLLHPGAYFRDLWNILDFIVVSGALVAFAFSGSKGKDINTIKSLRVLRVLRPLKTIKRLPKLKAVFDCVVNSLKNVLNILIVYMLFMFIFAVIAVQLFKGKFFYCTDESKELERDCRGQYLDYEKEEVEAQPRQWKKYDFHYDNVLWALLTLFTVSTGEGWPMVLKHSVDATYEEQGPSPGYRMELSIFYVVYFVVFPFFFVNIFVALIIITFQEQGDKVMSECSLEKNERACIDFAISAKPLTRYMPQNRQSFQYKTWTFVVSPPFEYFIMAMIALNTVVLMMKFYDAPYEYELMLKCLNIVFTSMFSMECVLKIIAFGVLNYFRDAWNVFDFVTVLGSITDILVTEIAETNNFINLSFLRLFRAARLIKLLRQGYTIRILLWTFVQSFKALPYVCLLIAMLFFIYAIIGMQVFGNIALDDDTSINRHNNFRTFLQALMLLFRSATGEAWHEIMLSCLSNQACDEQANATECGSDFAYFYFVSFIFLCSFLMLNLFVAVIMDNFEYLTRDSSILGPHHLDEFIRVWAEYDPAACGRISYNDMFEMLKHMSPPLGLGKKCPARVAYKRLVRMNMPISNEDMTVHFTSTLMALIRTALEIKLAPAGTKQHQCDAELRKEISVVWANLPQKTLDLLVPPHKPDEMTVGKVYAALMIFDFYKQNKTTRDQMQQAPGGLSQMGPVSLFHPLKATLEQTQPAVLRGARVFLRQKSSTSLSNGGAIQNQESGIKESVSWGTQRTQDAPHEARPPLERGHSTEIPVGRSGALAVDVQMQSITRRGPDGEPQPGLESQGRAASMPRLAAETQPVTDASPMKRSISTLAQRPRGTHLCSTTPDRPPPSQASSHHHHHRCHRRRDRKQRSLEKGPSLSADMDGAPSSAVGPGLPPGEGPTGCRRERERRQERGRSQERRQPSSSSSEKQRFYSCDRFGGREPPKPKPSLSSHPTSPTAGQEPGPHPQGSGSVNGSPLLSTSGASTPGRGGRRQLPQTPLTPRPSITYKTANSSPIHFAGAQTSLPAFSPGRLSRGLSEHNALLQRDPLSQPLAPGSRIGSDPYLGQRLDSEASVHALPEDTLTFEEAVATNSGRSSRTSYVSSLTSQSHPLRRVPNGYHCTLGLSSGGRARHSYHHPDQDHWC
UniProt Q9Y5Y9, whole entry: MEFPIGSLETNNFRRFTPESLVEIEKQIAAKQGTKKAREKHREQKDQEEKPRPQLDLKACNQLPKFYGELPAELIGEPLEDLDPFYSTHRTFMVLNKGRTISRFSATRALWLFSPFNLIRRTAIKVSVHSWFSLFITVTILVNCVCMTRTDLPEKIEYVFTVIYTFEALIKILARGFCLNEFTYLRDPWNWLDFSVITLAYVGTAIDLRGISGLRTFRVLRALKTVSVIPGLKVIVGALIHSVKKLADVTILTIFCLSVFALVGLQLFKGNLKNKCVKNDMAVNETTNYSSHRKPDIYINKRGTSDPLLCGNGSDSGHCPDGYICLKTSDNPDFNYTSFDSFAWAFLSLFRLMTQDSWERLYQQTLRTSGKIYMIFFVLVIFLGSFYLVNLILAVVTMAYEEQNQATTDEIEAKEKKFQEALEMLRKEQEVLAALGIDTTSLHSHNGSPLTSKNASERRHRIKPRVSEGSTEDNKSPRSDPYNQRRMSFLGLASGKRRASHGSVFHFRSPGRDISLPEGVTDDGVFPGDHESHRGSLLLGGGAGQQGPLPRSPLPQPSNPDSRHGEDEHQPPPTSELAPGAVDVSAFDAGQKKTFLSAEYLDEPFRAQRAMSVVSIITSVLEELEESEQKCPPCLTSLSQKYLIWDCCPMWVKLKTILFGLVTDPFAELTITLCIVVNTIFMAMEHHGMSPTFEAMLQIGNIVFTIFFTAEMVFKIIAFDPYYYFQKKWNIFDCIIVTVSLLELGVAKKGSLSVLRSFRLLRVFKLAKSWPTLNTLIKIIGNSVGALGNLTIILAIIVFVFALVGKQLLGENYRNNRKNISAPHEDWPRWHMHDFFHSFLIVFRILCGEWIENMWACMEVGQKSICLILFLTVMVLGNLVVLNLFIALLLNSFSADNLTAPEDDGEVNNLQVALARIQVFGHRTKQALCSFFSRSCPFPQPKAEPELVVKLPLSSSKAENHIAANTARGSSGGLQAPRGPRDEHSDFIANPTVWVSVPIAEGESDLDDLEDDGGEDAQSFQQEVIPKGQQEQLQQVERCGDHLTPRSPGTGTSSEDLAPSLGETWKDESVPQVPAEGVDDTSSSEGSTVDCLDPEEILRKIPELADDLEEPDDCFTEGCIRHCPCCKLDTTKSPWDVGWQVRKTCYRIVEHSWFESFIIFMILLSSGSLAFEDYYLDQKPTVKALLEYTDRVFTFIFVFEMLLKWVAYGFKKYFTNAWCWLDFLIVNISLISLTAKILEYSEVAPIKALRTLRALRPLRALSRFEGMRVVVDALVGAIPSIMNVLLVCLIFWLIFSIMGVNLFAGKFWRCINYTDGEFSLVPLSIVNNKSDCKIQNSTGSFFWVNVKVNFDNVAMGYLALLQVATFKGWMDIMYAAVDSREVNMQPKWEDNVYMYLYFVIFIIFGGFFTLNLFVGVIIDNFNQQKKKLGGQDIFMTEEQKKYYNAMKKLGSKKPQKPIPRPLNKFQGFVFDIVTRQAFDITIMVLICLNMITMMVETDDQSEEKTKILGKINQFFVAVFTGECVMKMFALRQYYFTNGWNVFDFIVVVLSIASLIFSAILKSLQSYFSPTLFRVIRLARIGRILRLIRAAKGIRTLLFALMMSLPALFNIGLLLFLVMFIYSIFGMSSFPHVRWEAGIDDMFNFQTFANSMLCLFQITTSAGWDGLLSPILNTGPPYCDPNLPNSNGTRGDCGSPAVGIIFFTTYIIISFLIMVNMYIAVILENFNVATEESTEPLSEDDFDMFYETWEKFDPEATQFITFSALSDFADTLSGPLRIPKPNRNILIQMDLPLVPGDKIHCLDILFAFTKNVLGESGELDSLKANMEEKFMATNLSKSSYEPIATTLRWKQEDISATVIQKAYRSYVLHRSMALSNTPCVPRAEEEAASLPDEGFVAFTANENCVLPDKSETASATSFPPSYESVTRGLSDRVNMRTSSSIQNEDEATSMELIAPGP

Measured: IC50

Cc1nc(N2CCCCC2)nc(-c2ccccc2F)c1C(=O)N(c1ccccc1)C(C)C
> 10 µM: all assays above
